Data from US20260176262A1, “KRAS INHIBITORS, PREPARATION METHOD THEREFOR, AND PHARMACEUTICAL USE THEREOF” (ABBISKO THERAPEUTICS CO., LTD., priority 2021, published 2026).

By UniProt entry, the sequences of proteins in these tests, tags left out. Residues count along the entry.
UniProt P01116, 1-188 isoform 2 G12D: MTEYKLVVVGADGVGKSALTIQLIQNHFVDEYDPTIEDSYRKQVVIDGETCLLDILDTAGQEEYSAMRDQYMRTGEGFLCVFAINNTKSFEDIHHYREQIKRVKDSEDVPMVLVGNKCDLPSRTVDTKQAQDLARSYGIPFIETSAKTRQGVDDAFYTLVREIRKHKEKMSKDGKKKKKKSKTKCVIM

Legend:
KRAS^G12D/cRAF = KRAS^G12D/cRAF (Homo sapiens, UniProt P01116, G12D); assay: KRAS G12D/cRAF binding test (Alphalisa); details: read-out: KRAS G12D/CRAF Alphalisa IC50; His-tagged KRAS G12D + GMPPNP, GST-tagged cRAF; class symbols
Protocol: The compound was dissolved in 100% DMSO at a starting concentration of 5 mM and diluted in DMSO with a 3-fold serial dilution method for a total of 8 concentration points. 1 μL of the compound or DMSO at each concentration point was added into 99 μL of the experimental buffer to obtain 10× stock solution.
• 1) 4 μL of the working mixture solution of His-tagged KRAS^G12D and GMPPNP was added to the 384-well plate. • 2) The 10× compound stock solution or 1% DMSO was added to the 384-well plate. • 3) The plate was centrifuged at 1000 rpm for 1 minute. • 4) 4 μL of GST-tagged cRAF solution was added to the 384-well plate. • 5) The plate was centrifuged at 1000 rpm for 1 minute. • 6) The plate was incubated at room temperature for 15 minutes. • 7) 10 μL of detection working solution was added to the 384-well plate. • 8) The plate was centrifuged at 1000 rpm for 1 minute. • 9) The plate was incubated at room temperature for 60 minutes. • 10) The 384-well plate was placed into Envision and assay data was obtained.
The ratio for each compound concentration was calculated from the signal of the DMSO control group contained in each assay plate and the Alphalisa signal in each compound well. […] The endpoint value (IC50) of the reference compound was assessed in each experiment as a quality control measure. […]

AGS cell = assay: Anti-proliferative 2D CTG assay, AGS cells; details: read-out: AGS cell IC50, incubated 3 days, class symbols
Protocol: When the cell confluence was about 80%, the cells were isolated with 0.25% trypsin. Isolated cells were resuspended in 5 mL fresh cell culture medium and centrifuged for cell collection. Meanwhile, the number of cells was also calculated. The cells were then suspended in culture medium of medium concentration. The cells were placed into a 96-well plate with 1000 cells/well for AGS and 1000 cells/well for GP2D. The 96-well plate was placed in an incubator at 37° C. and incubated overnight.
1.2 Day 1 Compound Treatment From the 10 mM stock solution, with a ratio of 1:5, 10-point serial dilutions were performed. The 10× medium containing the compound was transferred into corresponding wells of the 96 wells. The final maximum compound concentration was […] and the final DMSO concentration was 0.1%. The 96-well plate was placed in a 37° C. incubator, the AGS cells were incubated for 3 days, and the GP2D cells were incubated for 4 days.
50 μL/well of detection reagent (CTG) was added to the AGS cells, and the signal was read in an Envision machine.
The percent inhibition (%) at each compound concentration was calculated from the signal in the HPE and ZPE control wells and the fluorescence signal in the individual compound wells included in each assay plate. […] The endpoint value (IC50) of the reference compound was assessed in each experiment as a quality control measure. […]

Question: How did the IC50 (KRAS^G12D/cRAF) turn out when `[2H]C([2H])([2H])OC[C@@]12CC[C@@H](CN(c3nc(OC[C@@]45CCCN4C[C@H](F)C5)nc4c(F)c(-c5cc(O)cc6ccc(F)c(C#C)c56)ncc34)C1)N2` was run?
Answer: < 0.05 µM

Question: What about the IC50 (AGS cell) of the same molecule?
Answer: < 0.05 µM

Question: With `[2H]C([2H])([2H])OC[C@]12CC[C@H](CN(c3nc(OC[C@@]45CCCN4C[C@H](F)C5)nc4c(F)c(-c5cc(O)cc6ccc(F)c(C#C)c56)ncc34)C1)N2` as the molecule, how does the IC50 (KRAS^G12D/cRAF) read?
Answer: > 0.5 µM

Question: What about the IC50 (AGS cell) of the same molecule?
Answer: 0.05 to 0.5 µM
